Test results reported in ChEMBL document CHEMBL1933021, “Novel and selective spiroindoline-based inhibitors of Sky kinase” (Bioorg Med Chem Lett, 2012).

Amino acid sequences for entries named in this document (tags omitted). A change or cut given only in a name is not applied to a line headed by its entry.
UniProt P08581: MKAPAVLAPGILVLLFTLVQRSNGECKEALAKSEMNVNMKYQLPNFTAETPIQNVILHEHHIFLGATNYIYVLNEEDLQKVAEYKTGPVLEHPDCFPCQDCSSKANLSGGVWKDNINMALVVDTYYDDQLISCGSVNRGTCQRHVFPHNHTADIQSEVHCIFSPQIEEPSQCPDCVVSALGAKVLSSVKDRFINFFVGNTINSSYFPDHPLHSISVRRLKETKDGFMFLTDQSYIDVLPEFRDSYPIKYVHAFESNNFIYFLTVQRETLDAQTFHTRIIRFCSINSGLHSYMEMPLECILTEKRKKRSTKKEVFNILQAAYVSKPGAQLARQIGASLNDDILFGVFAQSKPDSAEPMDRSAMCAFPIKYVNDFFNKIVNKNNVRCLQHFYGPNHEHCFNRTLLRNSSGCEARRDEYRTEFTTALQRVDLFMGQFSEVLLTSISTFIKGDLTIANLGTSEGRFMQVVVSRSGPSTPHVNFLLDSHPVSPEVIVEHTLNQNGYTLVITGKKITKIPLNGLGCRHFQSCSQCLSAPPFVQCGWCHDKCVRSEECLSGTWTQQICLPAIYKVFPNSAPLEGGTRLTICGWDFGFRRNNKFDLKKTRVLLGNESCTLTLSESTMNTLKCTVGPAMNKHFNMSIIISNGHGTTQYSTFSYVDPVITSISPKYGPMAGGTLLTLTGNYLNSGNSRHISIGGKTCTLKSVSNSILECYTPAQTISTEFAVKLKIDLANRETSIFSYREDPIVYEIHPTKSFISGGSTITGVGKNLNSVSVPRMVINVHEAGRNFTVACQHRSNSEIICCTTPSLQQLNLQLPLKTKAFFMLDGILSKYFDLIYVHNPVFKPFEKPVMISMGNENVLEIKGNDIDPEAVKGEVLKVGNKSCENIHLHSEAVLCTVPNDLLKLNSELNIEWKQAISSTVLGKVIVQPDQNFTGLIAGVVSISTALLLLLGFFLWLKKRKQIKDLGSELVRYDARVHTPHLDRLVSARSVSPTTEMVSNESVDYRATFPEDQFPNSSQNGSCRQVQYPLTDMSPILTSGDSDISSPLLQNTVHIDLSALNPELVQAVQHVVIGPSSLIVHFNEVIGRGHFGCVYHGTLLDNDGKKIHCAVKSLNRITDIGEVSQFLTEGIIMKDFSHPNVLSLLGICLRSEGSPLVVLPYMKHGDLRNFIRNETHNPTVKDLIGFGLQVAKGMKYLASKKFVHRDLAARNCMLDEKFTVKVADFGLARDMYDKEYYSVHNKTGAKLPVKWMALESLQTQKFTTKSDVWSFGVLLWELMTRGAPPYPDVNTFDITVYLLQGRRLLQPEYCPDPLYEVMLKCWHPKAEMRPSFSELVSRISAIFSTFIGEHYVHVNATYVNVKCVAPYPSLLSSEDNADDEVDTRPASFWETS

Columns and labels:
[1] = tested on: Tyro3 (Mus musculus); test: Inhibition of mouse Sky kinase assessed as inhibition of src substrate phosphorylation by ELISA
[2] = target: Hepatocyte growth factor receptor (Homo sapiens, UniProt P08581); test: Inhibition of HGFR

inhibition [1]	IC50 [2]	Structure (SMILES)
Active	–	N#Cc1ccc2cc(C(=O)N3C[C@@]4(CCN(C5CCNC5)C4)c4ccccc43)[nH]c2c1 (stereo partly drawn)
Active	–	CN1CCC(N2CC[C@@]3(CN(C(=O)c4cc5cc(F)ccc5[nH]4)c4ccccc43)C2)CC1
–	> 30 µM	O=C(c1cc2ccc(F)cc2[nH]1)N1C[C@]2(CCN(C3CCNC3)C2)c2ccccc21 (stereo partly drawn)

The source made the active and inactive calls. The rule behind the calls is not given here.
